Source: US8324172B2, “G protein coupled receptor agonists and antagonists and methods of activating and inhibiting G protein coupled receptors using the same” (Tufts Medical Center, Inc., priority 2000, dated 2012)

By UniProt entry, the sequences of proteins in these tests, tags left out. Residues count along the entry.
UniProt P25116, 22-425 limits assumed: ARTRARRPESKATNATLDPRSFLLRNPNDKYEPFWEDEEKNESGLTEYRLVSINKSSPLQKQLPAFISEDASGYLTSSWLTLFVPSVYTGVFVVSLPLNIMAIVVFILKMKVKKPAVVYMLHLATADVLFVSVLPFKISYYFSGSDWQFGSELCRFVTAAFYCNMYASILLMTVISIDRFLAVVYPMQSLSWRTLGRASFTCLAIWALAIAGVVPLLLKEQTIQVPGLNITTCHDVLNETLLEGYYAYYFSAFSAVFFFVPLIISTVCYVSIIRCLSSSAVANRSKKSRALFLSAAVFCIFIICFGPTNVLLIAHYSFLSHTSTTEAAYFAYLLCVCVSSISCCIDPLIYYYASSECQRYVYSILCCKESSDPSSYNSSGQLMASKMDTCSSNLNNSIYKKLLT

Molecular target: PAR1 (Homo sapiens, UniProt P25116)
Assay: InsP formation (PLC-β) in Rat1 fibroblasts expressing human PAR1
Format: cell-based
Details: PAR1-Rat1 cells; for EC50: read-out: EC50 of stimulation of InsP production

CCCCCCCCCCCCCCCC(=O)N[C@@H](CCCNC(=N)N)C(=O)N[C@@H](CS)C(=O)N[C@@H](CC(C)C)C(=O)N[C@@H](CO)C(=O)N[C@@H](CO)C(=O)N[C@@H](CO)C(=O)N[C@@H](C)C(=O)N[C@H](C(=O)N[C@@H](C)C(=O)N[C@@H](CC(N)=O)C(=O)N[C@@H](CCCNC(=N)N)C(=O)N[C@@H](CO)C(=O)N[C@@H](CCCCN)C(=O)N[C@@H](CCCCN)C(=O)N[C@@H](CO)C(=O)N[C@@H](CCCNC(=N)N)C(=O)N[C@@H](C)C(=O)N[C@@H](CC(C)C)C(=O)N[C@@H](Cc1ccccc1)C(N)=O)C(C)C [Pepducin P1pal-19]
EC50: 180 nM

CCCCCCCCCCCCCCCC(=O)N[C@@H](CCCNC(=N)N)C(=O)N[C@@H](CS)C(=O)N[C@@H](CC(C)C)C(=O)N[C@@H](CO)C(=O)N[C@@H](CO)C(=O)N[C@@H](CO)C(=O)N[C@@H](C)C(=O)N[C@H](C(=O)N[C@@H](C)C(=O)N[C@@H](CC(N)=O)C(=O)N[C@@H](CCCNC(=N)N)C(=O)N[C@@H](CO)C(N)=O)C(C)C [Pepducin P1pal-12]
stimulation of InsP production (agonist activity): loss of stimulatory activity

CCCCCCCCCCCCCCCC(=O)N[C@@H](CCCCN)C(=O)N[C@@H](CCCCN)C(=O)N[C@@H](CO)C(=O)N[C@@H](CCCNC(=N)N)C(=O)N[C@@H](C)C(=O)N[C@@H](CC(C)C)C(=O)N[C@@H](Cc1ccccc1)C(N)=O [Pepducin P1pal-7, Pal-KKSRALF]
stimulation of InsP production (agonist activity): loss of stimulatory activity

CCCCCCCCCCCCCCCC(=O)N[C@@H](C)C(=O)N[C@H](C(=O)N[C@@H](C)C(=O)N[C@@H](CC(N)=O)C(=O)N[C@@H](CCCNC(=N)N)C(=O)N[C@@H](CO)C(=O)N[C@@H](CCCCN)C(=O)N[C@@H](CCCCN)C(=O)N[C@@H](CO)C(=O)N[C@@H](CCCNC(=N)N)C(=O)N[C@@H](C)C(=O)N[C@@H](CC(C)C)C(=O)N[C@@H](Cc1ccccc1)C(N)=O)C(C)C [Pepducin P1pal-13]
EC50: 700 nM
